# Measured values taken from patent US20230190937A1, “IRON COMPLEXES OF ESTERIFIED DERIVATIVES OF NATURAL PRODUCTS, AND METHODS OF USE” (CORNELL UNIVERSITY, priority 2021, published 2023).
# Assay: Stability of curcumin after modification to ester derivatives
# Settings: after esterification of curcumin, compared with pure curcumin (97% purity)
row,Substance,stability of the compound
1,curcumin dibutanoate,significantly increased
2,curcumin dioctanoate,significantly increased
